Consider 59 substances from US20240360179A1, “STAPLED PEPTIDES AND METHODS THEREOF” (FOG PHARMACEUTICALS, INC., priority 2021, published 2024).

Sequences of proteins named here, by UniProt entry; tags and fusion partners are left off.
UniProt P35222, whole entry: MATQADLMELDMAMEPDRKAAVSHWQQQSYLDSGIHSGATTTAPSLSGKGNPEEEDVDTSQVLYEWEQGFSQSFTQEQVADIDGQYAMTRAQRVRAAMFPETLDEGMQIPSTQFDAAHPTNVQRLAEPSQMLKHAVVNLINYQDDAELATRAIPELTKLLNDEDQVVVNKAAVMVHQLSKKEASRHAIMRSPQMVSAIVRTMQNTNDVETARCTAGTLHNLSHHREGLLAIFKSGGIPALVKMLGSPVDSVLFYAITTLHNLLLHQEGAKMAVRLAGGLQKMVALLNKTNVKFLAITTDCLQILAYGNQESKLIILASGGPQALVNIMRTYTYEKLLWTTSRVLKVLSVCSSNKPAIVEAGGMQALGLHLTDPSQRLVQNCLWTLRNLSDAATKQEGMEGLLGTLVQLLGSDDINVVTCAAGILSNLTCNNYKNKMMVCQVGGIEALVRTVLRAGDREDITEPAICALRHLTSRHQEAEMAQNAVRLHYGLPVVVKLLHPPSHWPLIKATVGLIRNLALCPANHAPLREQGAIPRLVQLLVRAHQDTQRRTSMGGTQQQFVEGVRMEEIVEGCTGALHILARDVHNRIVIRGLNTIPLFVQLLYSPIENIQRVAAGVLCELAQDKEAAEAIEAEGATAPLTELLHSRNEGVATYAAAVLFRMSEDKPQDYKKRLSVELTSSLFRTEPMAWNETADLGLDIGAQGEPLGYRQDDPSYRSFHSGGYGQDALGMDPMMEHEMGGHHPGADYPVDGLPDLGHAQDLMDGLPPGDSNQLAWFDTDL

For orientation: IC50 means the concentration that inhibits the measured activity by half.

The target in this assay is T1, full-length B-Catenin (Uniprot ID P35222) (Homo sapiens, UniProt P35222).
T1 construct: 10 nM full-length B-Catenin (Uniprot ID P35222)
The class given is binding. As to conditions: competition fluorescence polarization; read-out: beta-Catenin FP IC50. (In general: Polarisation of emitted light reports the rotation of a fluorescent probe.)
For the substance “Ac-PL3-Asp-Ile-B5-Asp-3COOHF-Aib-Ala-Phe-Lys*3-PyrS2-3Thi-2BrF-GlnR*3-NH2 [I-1612]”, the IC50 is below 50 nM.
Take “Ac-PL3-Asp-Ile-B5-Asp-3COOHF-Aib-Ala-Phe-GlnR*3-PyrS2-Phe-34ClF-AsnMe2EDA*3-NH2 [I-1415]”: the IC50 is below 50 nM.
The result for “2PyCypCO-PL3-Asp-DipA-B5-Asp-3COOHF-CyLeu-Ala-Phe-Lys*3-PyrS2-3Thi-34ClF-GlnR*3-NH2 [I-1720]” reads below 50 nM; that for “Ac-PL3-Asp-Npg-B5-Asp-3COOHF-Aib-Ala-Phe-TriAzLys*3-[CO][dAla]PyrSa-3Thi-BztA-sAla*3-Ala-NH2 [I-1127]”, below 50 nM.
Next, “Ac-PL3-Asp-Ile-B5-Asp-3COOHF-Aib-Ala-Phe-Lys*3-PyrS2-3Thi-3BrF-GlnR*3-NH2 [I-1613]”: below 50 nM; “2PyBu-PL3-Glu-Npg-B5-Glu-3COOHF-Aib-Ala-Phe-Lys*3-PyrS2-3Thi-BztA-GlnR*3-Ala-NH2 [I-1025]”: above 1000 nM.
Consider “Ac-PL3-Asp-Npg-B5-Asp-3COOHF-Aib-Ala-Phe-Lys*3-PyrS2-[Phc]2NH2F-BztA-GlnR*3-Ala-NH2 [I-1662]”, for which the IC50 was in the range of 50 to 200 nM.
Take “Ac-PL3-Asp-Cha-B5-Asp-3COOHF-Aib-Ala-Phe-Lys*3-PyrS2-2FF-BztA-GlnR*3-Ala-NH2 [I-1652]”: the IC50 is below 50 nM.
Next, “Ac-S5-Ala-Ser-Npg-B5-Asp-3COOHF-Aib-Ala-Phe-Lys*3-PyrS2-3Thi-BztA-GlnR*3-Ala-NH2 [I-1219]”: above 1000 nM; “Ac-PL3-Asp-Ile-B5-Asp-3COOHF-Aib-Ala-Phe-GlnR*3-PyrS2-Phe-34ClF-GlnS3APyr*3-NH2 [I-1385]”: below 50 nM.
Next, “Ac-PL3-Asp-Ile-B5-Asp-3COOHF-GlnBDA*3-Ala-Phe-Leu-PyrS2-Phe-34ClF-GlnR*3-NH2 [I-1796]”: below 50 nM.
The result for “Ac-PL3-Asp-Npg-B5-Asp-3COOHF-Aib-Ala-Phe-Lys*3-PyrS2-3Thi-BztA-GlnR*3-Ala-Ala-[mPEG16]Lys-NH2 [I-1404]” reads below 50 nM; that for “Ac-PL3-Asp-Npg-B5-Asp-TfeGA-Aib-Ala-Phe-Lys*3-PyrS2-Phe-34ClF-GlnR*3-Ala-NH2 [I-885]”, below 50 nM; that for “Ac-PL3-Asp-Ile-B5-Asp-3COOHF-Aib-Ala-Phe-1MeK*3-PyrS2-Phe-34ClF-GlnR*3-NH2 [I-1369]”, below 50 nM.
As for “Ac-Pro-S6-Leu-Asp-Val-B5-Asp-3COOHF-Aib-Ala-Phe-Lys*3-PyrS1-3Thi-BztA-GlnR*3-NH2 [I-1940]”, the concentration for half-maximal inhibition (IC50) is below 50 nM.
The result for “Ac-PL3-Asp-Npg-B5-Asp-3COOHF-Aib-Ala-Phe-Lys*3-PyrS2-[MeOPr]2NH2F-BztA-GlnR*3-Ala-NH2 [I-1744]” reads 200 to 750 nM; that for “Ac-PL3-Asp-Npg-B5-Asp-3COOHF-Aib-Ala-Phe-dOrn*3-PyrS2-3Thi-BztA-AsnR*3-Leu-Ser-NH2 [I-797]”, below 50 nM; that for “Ac-PL3-Phe-Npg-B5-Asp-3COOHF-Aib-Ala-Phe-Lys*3-PyrS2-3Thi-BztA-GlnR*3-Ala-NH2 [I-928]”, above 1000 nM.
Next, “Ac-PL3-Asp-Cha-B5-Asp-3COOHF-Aib-Ala-Phe-Lys*3-PyrS2-2ClF-34ClF-GlnR*3-NH2 [I-1502]”: below 50 nM; “Ac-PL3-Asp-Ile-B5-Asp-3COOHF-Aib-Ala-Phe-Lys*3-PyrS2-Phe-34ClF-GlnR*3-Ala-Ala-Ala-[mPEG8]Lys-NH2 [I-1412]”: below 50 nM; “Ac-PL3-Asp-Npg-B5-Asp-3COOHF-[Phc]PyrRa-Ala-Phe-Lys*3-PyrS2-3Thi-BztA-GlnR*3-Ala-NH2 [I-1035]”: below 50 nM.
The result for “Ac-PL3-Asp-DipA-B5-Asp-3COOHF-Gly-Ala-Phe-Lys*3-PyrS2-3Thi-BztA-GlnR*3-Ala-NH2 [I-1000]” reads below 50 nM; that for “Ac-PL3-Asp-DipA-B5-Asp-3COOHF-Ala-Ala-Phe-Lys*3-PyrS2-Phe-BztA-GlnR*3-dPro-NH2 [I-1844]”, below 50 nM; that for “CF3CO-PL3-Asp-DipA-B5-Asp-3COOHF-CyLeu-Ala-Phe-Lys*3-PyrS2-3Thi-34ClF-GlnR*3-NH2 [I-1716]”, below 50 nM.
In the case of “5PymAc-PL3-Asp-DipA-B5-Asp-3COOHF-CyLeu-Ala-Phe-Lys*3-PyrS2-3Thi-34ClF-GlnR*3-NH2 [I-1719]”, the IC50 was below 50 nM.
Next, “Ac-PL3-Asp-Npg-B5-Asp-3COOHF-Aib-Ala-Phe-Lys*3-PyrS2-hnLeu-2NapA-GlnR*3-Ala-NH2 [I-767]”: below 50 nM; “Ac-S5-Ala-Asp-Ile-B5-Asp-3COOHF-Aib-Ala-Phe-Lys*3-PyrS2-Phe-34ClF-GlnR*3-Ala-NH2 [I-1233]”: below 50 nM.
Next, “Ac-PL3-Asp-Ile-B5-Asp-3COOHF-Aib-Ala-Phe-Lys*3-PyrS2-Phe-2BrF-GlnR*3-NH2 [I-1602]”: 50 to 200 nM.
The result for “Ac-PL3-Asp-Leu-B5-Asp-3COOHF-Gln4Pippip*3-Ala-Phe-Ala-PyrS2-Phe-34ClF-GlnR*3-NH2 [I-1922]” reads below 50 nM; that for “Ac-Pro-S5-Glu-Asp-DipA-B5-Asp-3COOHF-Aib-Ala-Phe-Lys*3-PyrS1-Phe-34ClF-GlnR*3-NH2 [I-1885]”, below 50 nM; that for “Ac-S5-3COOHF-Asp-DipA-B5-Asp-3COOHF-Aib-Ala-Phe-Lys*3-PyrS1-3Thi-BztA-GlnR*3-NH2 [I-1875]”, below 50 nM.
With “Ac-PL3-Asp-Leu-B5-Asp-3COOHF-Gln3ACPip*3-Ala-Phe-Ala-PyrS2-Phe-34ClF-GlnR*3-NH2 [I-1900]”, the 50% inhibitory concentration (IC50) is 50 to 200 nM.
Consider “Ac-PL3-Asp-Npg-B5-Asp-3COOHF-Aib-Ala-Phe-Lys*3-PyrS2-3Thi-BztA-GlnR*3-Ala-Ala-Ala-GlnR**3-Ala-Ala-Ala-Lys**3-NH2 [I-1160]”, for which the IC50 is below 50 nM.
“Ac-PL3-Asp-Ile-B5-Asp-3COOHF-Aib-Ala-Phe-GlnR*3-PyrS2-Phe-34ClF-AsnPpz*3-NH2 [I-1379]”: the IC50 is below 50 nM.
Next, “Ac-S5-Ala-Asn-Npg-B5-Asp-3COOHF-Aib-Ala-Phe-Lys*3-PyrS2-3Thi-BztA-GlnR*3-Ala-NH2 [I-1193]”: 200 to 750 nM; “Ac-PL3-Asp-Ile-B5-Asp-3COOHF-Aib-Ala-Phe-Orn*3-PyrS2-Phe-34ClF-dGlnR*3-NHMe [I-1781]”: below 50 nM.
The result for “Ac-PL3-Asp-Leu-B5-Asp-3COOHF-Aib-Ala-Phe-Lys*3-PyrS2-5ClW-BztA-GlnR*3-Ala-NH2 [I-1915]” reads 750 to 1000 nM; that for “Ac-S5-Ala-Asp-Ile-B5-Asp-Asn-Aib-Ala-Phe-Lys*3-PyrS2-Phe-34ClF-GlnR*3-NH2 [I-1339]”, above 1000 nM.
In the case of “5hexenyl-MePro-Asp-B5-Ala-Asp-3COOHF-Ala-Ala-Phe-PyrS2-Lys*3-3Thi-BztA-Ala-GlnR*3-NH2 [I-992]”, the IC50 is above 1000 nM.
For the substance “Ac-PL3-Asp-Ile-B5-Asp-3COOHF-Aib-Ala-Phe-Lys*3-PyrS2-Phe-34ClF-GlnR*3-Thr-Ser-Leu-NH2 [I-1359]”, the IC50 is below 50 nM.
As for “Ac-PL3-Asp-Cha-B5-Asp-3COOHF-Aib-Ala-Phe-Lys*3-PyrS2-2ClF-BztA-GlnR*3-Ala-NH2 [I-1643]”, the IC50 is below 50 nM.
Turning to “Ac-PL3-Asp-DipA-B5-Asp-3COOHF-Ala-Ala-Phe-Lys*3-PyrS2-Phe-BztA-GlnR*3-Ser-NH2 [I-1846]”, the IC50 was below 50 nM.
Next, “Ac-PL3-Asp-Ile-B5-Asp-3COOHF-Aib-Ala-Phe-Lys*3-PyrS2-hhLeu-BztA-GlnR*3-Ala-NH2 [I-1310]”: below 50 nM.
On to “Ac-PL3-Asp-Npg-B5-Asp-[Ac]Dap-Aib-Ala-Phe-Lys*3-PyrS2-3Thi-BztA-GlnR*3-Ala-NH2 [I-1396]”, for which the IC50 is below 50 nM.
The result for “Ac-PL3-Asp-Npg-B5-Asp-3COOHF-Aib-Ala-Phe-Lys*3-PyrS2-hPhe-BztA-GlnR*3-Ala-NH2 [I-1305]” reads 50 to 200 nM; that for “Ac-PL3-Asp-Npg-B5-Asp-3COOHF-Aib-Ala-Phe-Lys*3-PyrS2-3Thi-BztA-GlnR*3-[mPEG16]Lys-NH2 [I-1183]”, below 50 nM.
Next, “4THPCO-PL3-Asp-Npg-B5-Asp-3COOHF-Aib-Ala-Phe-Lys*3-PyrS2-Phe-34ClF-GlnR*3-NH2 [I-1570]”: below 50 nM; “Ac-PL3-Asp-Ile-B5-Asp-3COOHF-Aib-Ala-Phe-Lys*3-PyrS2-2FF-34ClF-GlnR*3-NH2 [I-1539]”: below 50 nM; “Ac-PL3-Asp-Npg-B5-Asp-3COOHF-Aib-Ala-Phe-[IsoE]Cys-PyrS2-3Thi-BztA-hCys-Ala-NH2 [I-1462]”: 50 to 200 nM.
Next, “6QuiAc-PL3-Asp-Npg-B5-Asp-3COOHF-Aib-Ala-Phe-Lys*3-PyrS2-3Thi-BztA-GlnR*3-Ala-NH2 [I-1066]”: below 50 nM; “Ac-PL3-Asp-Ile-B5-Asp-3COOHF-Aib-Ala-Phe-Lys*3-PyrS2-Phe-34ClF-dGlnR*3-NHMe [I-1758]”: below 50 nM; “Ac-PL3-Asp-Npg-B5-Asp-3COOHF-Aib-Ala-Phe-Lys*3-PyrS2-[BiPh]2NH2F-BztA-GlnR*3-Ala-NH2 [I-1664]”: below 50 nM.
Regarding “Ac-PL3-Asp-Npg-B5-Asp-3COOHF-Aib-Ala-Phe-Lys*3-PyrS2-[3IAPAc]2NH2F-BztA-GlnR*3-Ala-NH2 [I-1751]”, the IC50 is below 50 nM.
Next, “Ac-PL3-Asp-Ile-B5-Asp-3COOHF-nLeu-Ala-Phe-Lys*3-PyrS2-3Thi-BztA-GlnR*3-Ala-NH2 [I-973]”: below 50 nM.
The result for “Ac-PL3-Asp-Ile-B5-Asp-3COOHF-Aib-Ala-Phe-Lys*3-PyrS2-hCypA-34ClF-GlnR*3-Ala-NH2 [I-1327]” reads below 50 nM.
Next, “Ac-PL3-Asp-Npg-B5-Asp-3COOHF-Aib-Ala-Phe-Lys*3-PyrS2-3Thi-BztA-GlnR*3-Ala-Arg-Ala-Ala-Ala-Arg-Ala-NH2 [I-1156]”: below 50 nM; “Ac-PL3-Asp-Ile-B5-Asp-3COOHF-CyLeu-Ala-Phe-Lys*3-PyrS2-Phe-34ClF-GlnR*3-Val-Thr-Ala-NH2 [I-1262]”: below 50 nM.
For “Ac-PL3-Asp-Ile-B5-Asp-3COOHF-Aib-Ala-Phe-GlnR3APyr*3-PyrS2-Phe-34ClF-GlnR*3-NH2 [I-1381]”, the half-maximal inhibitory concentration (IC50) was below 50 nM.
The result for “Ac-S5-Ala-Asp-DipA-B5-Asp-3COOHF-Aib-Ala-Phe-Lys*3-PyrS1-3Thi-BztA-GlnR*3-NH2 [I-1876]” reads below 50 nM.
